According to ChEMBL document CHEMBL1250451, “Mechanistic insights into a Ca2+-dependent family of alpha-mannosidases in a human gut symbiont” (Nat Chem Biol, 2010):

Key:
Type in all cases: protein assay
[1] = molecular target: T1, Alpha-1,2-mannosidase (BT_1769) (Bacteroides thetaiotaomicron) (UniProt Q8A6V7); assay: Activity of Bacteroides thetaiotaomicron GH92 alpha-mannosidase GH92 alpha-mannosidase 1769 assessed as mannose release at 1 mM after 16 hrs by HPLC relative to untreated control after 16 hrs by HPLC
T1 sequence (whole entry): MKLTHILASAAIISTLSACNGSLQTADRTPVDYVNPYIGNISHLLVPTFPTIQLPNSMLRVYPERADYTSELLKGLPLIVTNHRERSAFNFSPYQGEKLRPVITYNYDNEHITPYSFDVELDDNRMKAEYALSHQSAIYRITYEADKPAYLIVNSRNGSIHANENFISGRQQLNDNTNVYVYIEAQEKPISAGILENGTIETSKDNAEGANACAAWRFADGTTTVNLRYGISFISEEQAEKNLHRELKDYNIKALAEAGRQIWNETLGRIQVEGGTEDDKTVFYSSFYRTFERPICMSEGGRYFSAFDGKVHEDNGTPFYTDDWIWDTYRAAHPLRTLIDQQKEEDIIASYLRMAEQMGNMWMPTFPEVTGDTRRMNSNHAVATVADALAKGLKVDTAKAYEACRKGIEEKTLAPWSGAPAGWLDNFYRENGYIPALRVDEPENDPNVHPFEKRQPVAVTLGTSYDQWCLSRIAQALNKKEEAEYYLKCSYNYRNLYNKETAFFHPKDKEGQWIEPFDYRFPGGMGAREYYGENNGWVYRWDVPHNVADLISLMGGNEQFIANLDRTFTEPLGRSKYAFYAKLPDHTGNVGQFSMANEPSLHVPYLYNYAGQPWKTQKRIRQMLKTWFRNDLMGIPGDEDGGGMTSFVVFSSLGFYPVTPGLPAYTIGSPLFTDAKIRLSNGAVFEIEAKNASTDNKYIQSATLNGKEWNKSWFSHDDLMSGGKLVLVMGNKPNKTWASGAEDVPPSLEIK

[2] = molecular target: T2, Alpha-1,2-mannosidase (BT_3858) (Bacteroides thetaiotaomicron) (UniProt Q8A113); assay: Activity of Bacteroides thetaiotaomicron GH92 alpha-mannosidase GH92 alpha-mannosidase 3858 assessed as mannose release at 1 mM after 16 hrs by HPLC relative to untreated control after 16 hrs by HPLC
T2 sequence (whole entry): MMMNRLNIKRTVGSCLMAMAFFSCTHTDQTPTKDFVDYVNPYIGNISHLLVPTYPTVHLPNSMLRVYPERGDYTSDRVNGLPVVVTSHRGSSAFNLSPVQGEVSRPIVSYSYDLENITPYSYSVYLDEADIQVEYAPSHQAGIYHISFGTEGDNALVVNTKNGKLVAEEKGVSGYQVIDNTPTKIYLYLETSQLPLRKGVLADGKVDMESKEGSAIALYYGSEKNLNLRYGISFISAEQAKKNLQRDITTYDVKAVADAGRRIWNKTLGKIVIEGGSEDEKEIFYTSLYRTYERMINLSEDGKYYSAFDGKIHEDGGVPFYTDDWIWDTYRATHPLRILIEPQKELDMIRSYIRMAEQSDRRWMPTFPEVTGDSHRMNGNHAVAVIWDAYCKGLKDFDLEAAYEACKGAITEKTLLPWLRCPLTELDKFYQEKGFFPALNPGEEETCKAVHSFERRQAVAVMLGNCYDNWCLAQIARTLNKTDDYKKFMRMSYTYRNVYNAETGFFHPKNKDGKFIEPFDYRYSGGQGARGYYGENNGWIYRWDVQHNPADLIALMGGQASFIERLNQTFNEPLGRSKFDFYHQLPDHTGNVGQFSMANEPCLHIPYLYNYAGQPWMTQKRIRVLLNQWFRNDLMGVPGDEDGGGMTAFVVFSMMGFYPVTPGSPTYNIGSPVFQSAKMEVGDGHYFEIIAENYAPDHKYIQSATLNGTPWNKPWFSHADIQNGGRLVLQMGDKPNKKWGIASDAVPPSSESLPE

[3] = molecular target: T3, Alpha-1,2-mannosidase (BT_3994) (Bacteroides thetaiotaomicron) (UniProt Q8A0M7); assay: Activity of Bacteroides thetaiotaomicron GH92 alpha-mannosidase GH92 alpha-mannosidase 3994 assessed as mannose release at 1 mM after 16 hrs by HPLC relative to untreated control after 16 hrs by HPLC
T3 sequence (whole entry): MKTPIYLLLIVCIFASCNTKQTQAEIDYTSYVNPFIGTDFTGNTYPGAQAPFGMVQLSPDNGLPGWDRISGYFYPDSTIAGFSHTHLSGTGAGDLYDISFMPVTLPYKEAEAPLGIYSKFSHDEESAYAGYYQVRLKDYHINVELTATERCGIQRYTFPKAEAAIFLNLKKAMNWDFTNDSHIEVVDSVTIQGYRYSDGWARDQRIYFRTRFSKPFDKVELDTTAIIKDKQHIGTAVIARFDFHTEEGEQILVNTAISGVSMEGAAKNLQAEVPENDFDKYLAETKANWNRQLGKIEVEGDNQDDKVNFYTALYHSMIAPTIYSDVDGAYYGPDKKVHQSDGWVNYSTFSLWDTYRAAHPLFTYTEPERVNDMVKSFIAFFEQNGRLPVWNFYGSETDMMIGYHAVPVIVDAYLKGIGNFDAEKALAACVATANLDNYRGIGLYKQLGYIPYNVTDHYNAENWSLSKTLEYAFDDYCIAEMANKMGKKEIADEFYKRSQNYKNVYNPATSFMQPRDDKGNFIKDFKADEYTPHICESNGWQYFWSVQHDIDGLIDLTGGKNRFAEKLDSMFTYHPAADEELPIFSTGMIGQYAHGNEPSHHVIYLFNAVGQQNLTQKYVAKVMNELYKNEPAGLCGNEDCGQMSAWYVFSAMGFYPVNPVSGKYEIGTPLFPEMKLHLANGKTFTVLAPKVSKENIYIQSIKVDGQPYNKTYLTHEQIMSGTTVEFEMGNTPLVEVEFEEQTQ

- Activity [1]: 100%
- Activity [2]: 100%
- Activity [3]: 100%
SMILES: OC[C@H]1O[C@H](O[C@@H]2[C@H](O)[C@@H](O)O[C@H](CO)[C@H]2O)[C@@H](O)[C@@H](O)[C@@H]1O
